From ChEMBL document CHEMBL1122516, “Structure-activity relationships for reactivators of organophosphorus-inhibited acetylcholinesterase: quaternary salts of 2-[(hydroxyimino)methyl]imidazole” (1984)

System: Anguilliformes
Assay: The compound was tested for % of maximum reactivation for GD-inhibited Eel AChE (Acetylcholinesterase) by oximes

Going from `Cn1cc[n+](COCC(C)(C)C)c1/C=N/O.[Cl-]` to `CC(OC[n+]1ccn(C)c1/C=N/O)C(C)(C)C.[Cl-]` (stereo not drawn), the Rmax falls from 5.4% to 0.8%.

First: Cn1cc[n+](COCc2ccccc2)c1/C=N/O.[Cl-]
Second: Cn1cc[n+](COCCCc2ccccc2)c1/C=N/O.[Cl-]
The Rmax of the first is higher: 25.5% for the first, 19.3% for the second.

First: CCCCOC[n+]1ccn(C)c1/C=N/O.[Cl-]
Second: CCCCCCCCOC[n+]1ccn(C)c1/C=N/O.[Cl-]
The Rmax of the first is higher: 17.4% for the first, 9.3% for the second.

First: Cn1cc[n+](COCc2cccc3ccccc23)c1/C=N/O.[Cl-]
Second: CC(C)OC[n+]1ccn(C)c1/C=N/O.[Cl-]
The Rmax of the first is higher: 20.4% for the first, 9.8% for the second.
